Test results: patent US10501458B2, “Substituted bicyclic fused ring compounds as indoleamine-2,3-dioxygenase inhibitors” (Merck Sharp & Dohme Corp., priority 2015, dated 2019)

Protein sequences, listed by entry. Tags and fused reporters are not part of them.
UniProt P48775, whole entry: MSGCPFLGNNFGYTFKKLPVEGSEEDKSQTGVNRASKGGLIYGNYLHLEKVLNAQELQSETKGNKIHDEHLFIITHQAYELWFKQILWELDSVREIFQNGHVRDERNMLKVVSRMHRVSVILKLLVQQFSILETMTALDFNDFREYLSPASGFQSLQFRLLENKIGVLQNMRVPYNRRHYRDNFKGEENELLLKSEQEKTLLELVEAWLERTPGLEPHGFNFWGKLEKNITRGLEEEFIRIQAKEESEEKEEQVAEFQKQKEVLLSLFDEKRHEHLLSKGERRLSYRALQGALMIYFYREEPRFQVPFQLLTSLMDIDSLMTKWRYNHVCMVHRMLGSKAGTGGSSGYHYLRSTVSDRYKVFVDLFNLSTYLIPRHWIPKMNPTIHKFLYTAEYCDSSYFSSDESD
UniProt P14902, whole entry: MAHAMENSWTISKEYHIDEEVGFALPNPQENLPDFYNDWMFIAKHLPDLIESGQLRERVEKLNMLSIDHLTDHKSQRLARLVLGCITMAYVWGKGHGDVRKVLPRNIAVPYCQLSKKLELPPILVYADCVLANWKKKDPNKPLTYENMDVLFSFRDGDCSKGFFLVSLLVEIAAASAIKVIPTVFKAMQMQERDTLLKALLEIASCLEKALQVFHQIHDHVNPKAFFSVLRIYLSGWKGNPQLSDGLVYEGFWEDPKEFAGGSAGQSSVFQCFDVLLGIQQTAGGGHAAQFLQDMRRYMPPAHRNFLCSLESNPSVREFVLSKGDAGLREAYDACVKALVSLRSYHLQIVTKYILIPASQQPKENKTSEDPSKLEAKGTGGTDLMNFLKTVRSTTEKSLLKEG

Columns and labels:
[1] = molecular target: TDO (Homo sapiens (Human), UniProt P48775); experiment: A172 kynurenine cell-based assay; conditions: A172 human glioblastoma cells, 500 μM L-tryptophan, 48 hours
Protocol: (§1) Exemplary compounds of the invention were prepared, and tested to determine their effect as TDO and/or IDO inhibitors. Two different assays were employed: 1. a cell-based assay for detecting the effect of test compounds on kynurenine production in two different cancer cell types. This assay utilised cancer cells which expressed either TDO or IDO and as such was used as a means of testing compound activity at these two enzymes in a cell-based context. 2. a TDO and IDO biochemical coupled assay which utilised recombinantly produced and purified TDO and IDO enzymes in combination with the enzyme formamidase. This coupled enzyme system allowed conversion of N-formylkynurenine produced by TDO or IDO activity to kynurenine which was then quantified by fluorescence following addition of Erhlich's Reagent The protocols for these are set out below.
(§2) Cell Based Assay for Detection of Kynurenine Produced by TDO and/or IDO
(§3) A172 (human glioblastoma) and SKOV3 (human ovarian adenocarcinoma) cells were seeded in a 96 well plate at 30,000 or 40,000 cells per well respectively in phenol red-free RPMI supplemented with 10% FCS, 2 mM L-glutamine and 500 μM L-tryptophan. IDO expression was induced in the SKOV3 cells by the addition of 500 ng/ml IFN-γ. […] The Erhlich's reagent was incubated for 5 minutes before the absorbance was read at 490 nm.

[2] = molecular target: T1, IDO (Homo sapiens (Human), UniProt P14902); experiment: SKOV3 kynurenine cell-based assay (IDO induced by IFN-γ); conditions: SKOV3 human ovarian adenocarcinoma cells, 500 ng/ml IFN-γ, 500 μM L-tryptophan, 48 hours
Protocol: as §1, §2, §3

[3] = molecular target: T1, IDO; experiment: hIDO biochemical coupled assay; conditions: 45 μM L-tryptophan, 17 minutes at room temperature
Protocol: as §1
TDO and IDO Biochemical Coupled Assay
Recombinant human IDO or TDO was incubated in 50 mM KPO4 (pH 7.0), 0.5 mM EGTA, 0.5 mM EDTA, 0.05% Triton™ X100, 20 mM ascorbate, 10 μM methylene blue, 500 U/ml catalase, 50 μg/ml KynB (kynurenine formamidase). […] After incubation for 17 minutes at room temperature the reactions were stopped by the addition of Erhlich's reagent and incubated at room temperature for 5 minutes before the fluorescence was read (Ex 475, Em530).

SMILES: CS(=O)(=O)N1CCC(Nc2cc(Cl)cn3cncc23)CC1
- A172 Kynurenine cell based assay, pIC50 [1]: + (+ = pIC50 4.00-4.49)
- SKOV3 Kynurenine cell based assay, pIC50 [2]: +/− (+/− = pIC50 <4.00)
- hIDO biochemical assay, pIC50 [3]: + (+ = pIC50 4.00-4.49)
